The entries are a selection whose mix differs from that of the whole data set. Some structures show a salt or complex split into parts, the way the source records it. Active and inactive are the calls of the source. Rule as the data show it: active = activation above about 30%; inactive = the rest.

Protein sequences, listed by entry. Tags and fused reporters are not part of them.
UniProt P34981, whole entry: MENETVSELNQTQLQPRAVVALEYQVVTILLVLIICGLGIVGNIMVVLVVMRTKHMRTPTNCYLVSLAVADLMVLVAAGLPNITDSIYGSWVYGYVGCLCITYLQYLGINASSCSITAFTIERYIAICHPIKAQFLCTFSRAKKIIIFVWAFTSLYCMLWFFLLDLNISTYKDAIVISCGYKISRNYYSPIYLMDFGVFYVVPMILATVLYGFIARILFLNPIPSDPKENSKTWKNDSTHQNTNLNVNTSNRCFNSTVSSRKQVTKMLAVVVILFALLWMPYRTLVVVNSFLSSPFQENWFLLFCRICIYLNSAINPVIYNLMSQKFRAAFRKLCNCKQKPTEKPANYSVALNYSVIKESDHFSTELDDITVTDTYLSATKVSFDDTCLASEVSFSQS

This test has as its target Thyrotropin-releasing hormone receptor (Homo sapiens) (UniProt P34981). As to the kind of experiment: qHTS for Small Molecule Agonists and Allosteric Enhancers of Human TRH Receptor: Primary Screen for Agonists. Also: 0% is about no effect. Particulars: TRHR cells, calcium flux fluo-8, FDSS agonist mode; at 2 µM; hits give high values. From the text:
NIH Chemical Genomics Center [NCGC] NIH Molecular Libraries Probe Centers Network [MLPCN] MLPCN Grant: MH089816-01 Assay Submitter (PI): Marvin Gershengorn This project aims to identify small drug-like molecules that activate (agonists) the thyrotropin releasing hormone (TRH) receptor (TRHR) or enhance its TRH-stimulated activity (allosteric enhancers). TRHR, a drug-accessible cell surface receptor expressed in specific brain regions, and its ligand TRH have been implicated in several central nervous system disorders, including depression and anxiety. Small molecule TRHR agonists or allosteric enhancers that are metabolically stable and able to cross the blood-brain barrier might serve as probes to elucidate the roles of brain TRH receptors in animal models, and might be valuable as lead compounds for the development of drugs to treat patients with central nervous system disorders. Upon TRHR-Gq activation in TRHR cells, intracellular calcium is released from stores in the endoplasmic reticulum. […] This primary screen measures compound-induced activation of calcium release.
For the HTS assay freshly prepared cells are plated at a density of 2000/well in 3 ul of complete DMEM medium containing 10% serum in 1536-well plates and cultured over night at 37 C in a humidified incubator with 5% CO2. The next day, 2 ul of a no wash calcium dye (ABD Bioquest) was added to the cells and plates were incubated at room temperature for 1 hour. For the assay, assay plates were loaded into the FDSS kinetic plate reader. A 10 cycle (1 second/cycle) baseline measurement is taken and then the FDSS online 1536 pintool delivers 23 nl of compound library (as well as TRH controls) to the plate. The plate is measured for kinetically at 1 cycle/sec for 180 seconds and is considered to be the agonist portion of the assay (eg, compounds which activate a positive calcium response during this portion are flagged as potential agonists). Following the 180 second read, 1 ul of either an EC20 (positive modulation assay) is delivered by an onboard pipette head. Measurements are taken kinetically for an additional 180 seconds. TRHR FDSS Screening Protocol 1. Reagent, 3 uL 2000 cells/well 1536 TC treated Black plate in media containing 10% FCS 2. Time, 18 hours, 33.5C 5% CO2 (cells grown at 37C) 3. Reagent, 2 uL ABD fluo-8 Ca dye 4. Time, 30 min-1.5hrs hours, Room temp (6 plates/batch) 5. Detector, EX 480/EM 530C, FDSS 10 cycles baseline (1sec/cycle) 6. Compound, 23 nL of stock solution from library 7. Detector, EX 480/EM 530C, FDSS […] (1sec/cycle) Agonist mode 8. Compound, 1 ul EC20 of TRH made up in HEPES HBSS, 10 nM final 9. Detector, EX 480/EM 530C, FDSS 100 cycles (1sec/cycle) Potentiator mode
In general terms: qHTS replaces the single test concentration by a dilution series.
`CCOC(=O)N1CCC(Nc2cccc(C)c2)CC1`: the activation was inactive: -0.211%.

With `COc1cc(C(=O)NCC2(N(C)C)CCCCC2)ccc1OC(F)F`, the activation was inactive: 0.566%.

Take `Cc1ccc(OCC(C)C)c(CN(CCCl)CCCl)c1`: the activation is inactive: 0.166%.

Consider `CCOc1ccc(C)cc1CN(CCCl)CCCl`, for which the activation is inactive: -0.183%.

With `O=C(NCC1(N2CCOCC2)CCCCC1)c1ccc(Cl)cc1`, the activation was inactive: -0.997%.

As for `CCCCOc1ccc(C(=O)NCC2(N3CCOCC3)CCCCC2)cc1`, the activation was inactive: -0.248%.

Take `O=C(NCC1(N2CCCCC2)CCCCC1)c1ccc(F)cc1`: the activation was inactive: 0.324%.

Regarding `COc1ccc(NC2CCN(CCc3ccccc3)CC2)c(OC)c1`, the activation is inactive: -0.0601%.

`CCOC(=O)N1CCC(Nc2ccc(F)cc2)CC1`: the activation was inactive: -0.431%.

Consider `COc1ccccc1C(=O)NCC1(N2CCOCC2)CCCCC1`, for which the activation is inactive: -0.102%.

Consider `O=C(NCC1(N2CCOCC2)CCCCC1)c1cc2ccccc2o1`, for which the activation is inactive: -0.606%.

As for `O=C(NCC1(N2CCCCC2)CCCCC1)c1ccc(Cl)nc1`, the activation is inactive: 0.26%.

On to `Cc1cc(C)cc(N(C(=O)c2ccccc2)C2CCN(C(=O)OC(C)(C)C)CC2)c1`, for which the activation is inactive: 0.36%.

As to `CCOC(=O)N1CCC(Nc2ccc(OC)cc2)CC1`, the activation is inactive: 0.213%.

As to `N#CC1(Nc2ccccc2)CCN(Cc2ccccc2)CC1`, the activation is inactive: 0.705%.

For the molecule `O=C(NCC1(N2CCCCC2)CCCCC1)c1ccc(Cl)s1`, the activation is inactive: -0.587%.

For `O=C(OC1CN2CCC1CC2)C1c2ccccc2Oc2ccccc21` (stereo unspecified), the activation is inactive: 0.478%.

For the molecule `COc1ccc(Cl)cc1C(=O)NCC1(N2CCOCC2)CCCCC1`, the activation is inactive: 1.46%.

In the case of `O=C(NCC1(N2CCCCC2)CCCCC1)c1ccc(=O)[nH]c1`, the activation is inactive: 0.0155%.

In the case of `O=C(NCC1(N2CCCCC2)CCCCC1)c1cccs1`, the activation is inactive: -0.252%.

`COc1ccc(C(=O)NCC2(N3CCCCC3)CCCCC2)cc1`: the activation was inactive: -1.81%.

Turning to `COc1ccc(C(=O)NCC2(N3CCCCC3)CCCCC2)c(OC)c1OC`, the activation is inactive: -0.302%.

Regarding `CC(C)(C)OC(=O)N1CCC(N(C(=O)c2ccccc2)c2ccc(F)cc2)CC1`, the activation was inactive: -0.296%.

For the molecule `CSc1ccccc1C(=O)NCC1(N2CCCCC2)CCCCC1`, the activation is inactive: 0.757%.

Take `O=C(NCC1(N2CCCCC2)CCCCC1)c1cncc(Br)c1`: the activation was inactive: -0.327%.

In the case of `COc1ccc2c(c1O)-c1c(O)c(OC)cc3c1[C@H](C2)[N+](C)(C)CC3.O=[N+]([O-])c1cc([N+](=O)[O-])c([O-])c([N+](=O)[O-])c1[O-]`, the activation was inactive: -0.0994%.

These data come from PubChem BioAssay AID493084 (National Center for Advancing Translational Sciences (NCATS), 2011).
